Screens (PubChem)
Sampled rows, rich in hits. Any-hit rate of the full collection: about 1.8%.
Yeast UUG start: alters start codon recognition fidelity in yeast; S. cerevisiae UUG-firefly luciferase reporter, luminescence/redox ratio; activity score, % at 18.7 µM; hit rate 0.13% among 350,000;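 active = replicate mean at a twofold rise or more, about +100% in these data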;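 also: firefly luciferase made from a UUG start codon reports start codon fidelity; reporter light over untreated wells divided by growth signal over untreated wells; some hits fall short of that in this replicate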
RAD52 inh: blocks human RAD52 DNA annealing; inhibition, % at 18.7 µM; actives 0.46% (n = 360,000); recombinant RAD52 DNA annealing, FRET fluorescence;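 active = every replicate showing at least 50% inhibition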
E-sel inducer: E-selectin induction on HUVECs; HUVEC E-selectin immunofluorescence imaging; normalized: neutral wells 0, TNF-alpha wells 100; activation, % at 7.58 µM; actives 0.37% (n = 260,000); AID 686992;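 active = mean E-selectin-positive cell signal at least 10% of the positive control, reached in at least 60% of replicates, without over 20% cell loss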
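Test system: HUVEC | Signal: Immunofluorescence imaging | Read-out: Percent E-selectin-positive cells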
RAD54 inh: RAD54 (human) branch migration inhibition; inhibition, % at 10.4 µM; RAD54 Holliday junction branch migration, FAM/BHQ fluorescence; actives 0.14% (n = 360,000); Q92698;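 active = mean normalized replicate activity at least 40 and at least half of replicates scoring 40 or more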;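 also: 0% = median of neutral control wells and 100% = median of positive control wells; inhibitors cause a drop in the FAM fluorescence signal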
AF4-AF9 inh: inhibitors of human MLL-AF4/AF9 interaction; P42568; inhibition, % at 10 µM; actives 0.47% (n = 350,000); AlphaScreen, biotin-AF4 peptide binding to FLAG-AF9;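 active = every replicate reaching a set inhibition limit, whatever the replicate mean, cut at about 25% in these data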;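 also: 0% = plate neutral control median and 100% = total signal loss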
SIRT5 inh: sirtuin-5 (human) deacylase inhibition; Q9NXA8; inhibition, % at 15 µM; Purified SirT5, succinyl-peptide AMC, trypsin-coupled fluorescence; AID 652115; actives 1.1% (n = 330,000); in the data active = inhibition above about 15%
* hit, by the source's call.

What do the screens show for `CCc1nc(Sc2nnnn2-c2ccccc2)c2c3c(sc2n1)CCCC3`?
RAD52 inh: -4; AF4-AF9 inh: 47*; SIRT5 inh: -5

Results for Cc1noc(C)c1S(=O)(=O)N(C)C[C@H]1Oc2ccc(NC(=O)Nc3ccc4c(c3)OCO4)cc2CC(=O)N([C@@H](C)CO)C[C@H]1C ?
Yeast UUG start: -4; RAD52 inh: -5; E-sel inducer: 1; RAD54 inh: 0; AF4-AF9 inh: 5; SIRT5 inh: 0

What do the screens show for `CCC(=O)Nc1ccc2c(c1)C(=O)N(C)[C@@H]1CC[C@H](CC(=O)N[C@H](C)c3ccccc3)O[C@@H]1CO2`?
Yeast UUG start: -10; RAD52 inh: 7; E-sel inducer: 0; RAD54 inh: 2; AF4-AF9 inh: 0; SIRT5 inh: 15*

How did C[C@H](NC(=O)C[C@H]1CC[C@H]2[C@H](COc3ccc(NS(=O)(=O)c4ccc(Cl)cc4)cc3C(=O)N2C)O1)c1ccccc1 do in these assays?
RAD52 inh: 14; E-sel inducer: 128*; RAD54 inh: 0; AF4-AF9 inh: 0; SIRT5 inh: -2

What do the screens show for `O=C(Nc1ccc2c(c1)[C@H]1C[C@@H](CC(=O)N3CCc4ccccc4C3)O[C@@H](CO)[C@H]1O2)C1CCC1`?
Yeast UUG start: -4; RAD52 inh: 3; E-sel inducer: 0; RAD54 inh: 0; AF4-AF9 inh: 1; SIRT5 inh: 1

How did C[C@@H]1CN([C@H](C)CO)C(=O)c2cc(NS(=O)(=O)c3cccs3)ccc2O[C@@H](C)CCCCO[C@@H]1CN(C)C(=O)CCCN(C)C do in these assays?
RAD52 inh: -6; E-sel inducer: 0; AF4-AF9 inh: -2; SIRT5 inh: 5

Results for Cc1cc(C)c(OCCCCN(C)C)c(Br)c1 ?
RAD52 inh: -13; AF4-AF9 inh: -1; SIRT5 inh: 15*

How did CCN1C(=O)C(CC(=O)Nc2ccc(OC)cc2)N(CCCN2CCN(c3ccc(OC)cc3)CC2)C1=S (stereo not given) do in these assays?
Yeast UUG start: -2; RAD52 inh: -21; RAD54 inh: 10; AF4-AF9 inh: 28*; SIRT5 inh: 1

How did C[C@H]1CN([C@@H](C)CO)C(=O)c2cc(C3=CCCCC3)cnc2O[C@H]1CN(C)C(=O)NC1CCCC1 do in these assays?
Yeast UUG start: 5; RAD52 inh: 4; E-sel inducer: 0; RAD54 inh: -10; AF4-AF9 inh: -8; SIRT5 inh: 3

Results for O=C(C[C@H]1C[C@H]2c3cc(NC(=O)NC4CCCC4)ccc3O[C@H]2[C@H](CO)O1)NCc1ccc2c(c1)OCO2 ?
Yeast UUG start: -1; RAD52 inh: -1; E-sel inducer: 0; RAD54 inh: 0; AF4-AF9 inh: -2

2 entries drawn at random from the list so far:
How did C[C@H](NC(=O)C[C@H]1CC[C@H]2[C@H](COc3ccc(NS(=O)(=O)c4ccc(Cl)cc4)cc3C(=O)N2C)O1)c1ccccc1 do in these assays?
RAD52 inh: 14; E-sel inducer: 128*; RAD54 inh: 0; AF4-AF9 inh: 0; SIRT5 inh: -2

Results for O=C(C[C@H]1C[C@H]2c3cc(NC(=O)NC4CCCC4)ccc3O[C@H]2[C@H](CO)O1)NCc1ccc2c(c1)OCO2 ?
Yeast UUG start: -1; RAD52 inh: -1; E-sel inducer: 0; RAD54 inh: 0; AF4-AF9 inh: -2

Additional records:
Results for C[C@H]1CN([C@@H](C)CO)S(=O)(=O)c2ccc(C#CC3CC3)cc2O[C@@H]1CN(C)Cc1ccccc1F ?
Yeast UUG start: 7; RAD52 inh: 3; E-sel inducer: 0; RAD54 inh: -2; AF4-AF9 inh: 1; SIRT5 inh: 17*

Results for CC(C)CC#Cc1ccc2c(c1)O[C@@H](CN(C)Cc1ccccc1F)[C@@H](C)CN([C@H](C)CO)S2(=O)=O ?
Yeast UUG start: 8; RAD52 inh: 3; E-sel inducer: 1; RAD54 inh: -1; AF4-AF9 inh: -2; SIRT5 inh: 1

How did C[C@H](CO)N1C[C@H](C)[C@@H](CN(C)Cc2ccc(F)cc2)Oc2cc(C#CC3CC3)ccc2S1(=O)=O do in these assays?
Yeast UUG start: -5; RAD52 inh: -14; RAD54 inh: -13; AF4-AF9 inh: 1; SIRT5 inh: 13

Results for CC(C)CC#Cc1ccc2c(c1)O[C@@H](CN(C)Cc1ccccc1F)[C@H](C)CN([C@H](C)CO)S2(=O)=O ?
Yeast UUG start: 20; RAD52 inh: 13; E-sel inducer: 2; RAD54 inh: -5; AF4-AF9 inh: 1; SIRT5 inh: 22*

Results for C[C@@H]1CN([C@H](C)CO)S(=O)(=O)c2ccc(C#CC3CC3)cc2O[C@H]1CN(C)Cc1ccc(F)cc1 ?
Yeast UUG start: 7; RAD52 inh: -7; E-sel inducer: 0; RAD54 inh: -5; AF4-AF9 inh: 3; SIRT5 inh: 16*
